In US20260384451A1, “6-ARYL IMIDAZO[2,1-B]THI/OpXAZOLE-2-CARBOXILIC ACID DERIVATIVE AND PHARMACEUTICAL COMPOSITION FOR TREATING ALZHEIMER'S DISEASE CONTAINING SAME AS ACTIVE INGREDIENT” (published 2026):
pIC50: −log10 of the molar value. Like-named read-outs stand apart in the source and are kept apart here.

Chains of the proteins cited; added tags and fusions are not shown.
UniProt P45983, whole entry: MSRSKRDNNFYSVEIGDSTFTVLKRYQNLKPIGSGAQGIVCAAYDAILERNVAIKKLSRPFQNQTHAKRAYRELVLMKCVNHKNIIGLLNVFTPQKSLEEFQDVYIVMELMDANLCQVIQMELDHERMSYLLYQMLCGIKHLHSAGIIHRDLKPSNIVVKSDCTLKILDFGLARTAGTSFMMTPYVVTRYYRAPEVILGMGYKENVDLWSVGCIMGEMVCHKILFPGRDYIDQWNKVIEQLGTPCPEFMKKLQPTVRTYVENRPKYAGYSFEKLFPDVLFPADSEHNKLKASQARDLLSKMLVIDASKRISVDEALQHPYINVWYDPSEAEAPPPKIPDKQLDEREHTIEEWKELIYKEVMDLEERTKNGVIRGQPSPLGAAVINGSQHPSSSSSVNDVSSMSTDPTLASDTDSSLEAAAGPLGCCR
UniProt P45984, whole entry: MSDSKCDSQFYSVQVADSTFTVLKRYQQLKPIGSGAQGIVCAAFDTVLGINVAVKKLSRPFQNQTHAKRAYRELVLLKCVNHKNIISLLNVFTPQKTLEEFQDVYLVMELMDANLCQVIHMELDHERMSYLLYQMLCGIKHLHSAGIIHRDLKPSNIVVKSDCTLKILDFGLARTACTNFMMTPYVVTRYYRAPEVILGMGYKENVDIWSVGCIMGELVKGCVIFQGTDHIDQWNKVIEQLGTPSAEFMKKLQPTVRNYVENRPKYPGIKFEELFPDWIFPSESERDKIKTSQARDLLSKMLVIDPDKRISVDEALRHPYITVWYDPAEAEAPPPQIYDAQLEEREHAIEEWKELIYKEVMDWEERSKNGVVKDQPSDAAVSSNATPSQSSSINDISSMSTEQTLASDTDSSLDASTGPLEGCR
UniProt Q16539, whole entry: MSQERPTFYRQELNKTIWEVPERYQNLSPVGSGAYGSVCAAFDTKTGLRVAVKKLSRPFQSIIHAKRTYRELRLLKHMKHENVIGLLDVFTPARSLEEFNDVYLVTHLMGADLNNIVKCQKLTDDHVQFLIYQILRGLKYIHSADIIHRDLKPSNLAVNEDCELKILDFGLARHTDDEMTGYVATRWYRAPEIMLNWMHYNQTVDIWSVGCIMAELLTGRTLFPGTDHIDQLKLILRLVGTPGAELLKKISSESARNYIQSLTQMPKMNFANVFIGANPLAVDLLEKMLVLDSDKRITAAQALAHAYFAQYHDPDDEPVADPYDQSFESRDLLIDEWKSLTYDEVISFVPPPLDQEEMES
UniProt P53779, whole entry: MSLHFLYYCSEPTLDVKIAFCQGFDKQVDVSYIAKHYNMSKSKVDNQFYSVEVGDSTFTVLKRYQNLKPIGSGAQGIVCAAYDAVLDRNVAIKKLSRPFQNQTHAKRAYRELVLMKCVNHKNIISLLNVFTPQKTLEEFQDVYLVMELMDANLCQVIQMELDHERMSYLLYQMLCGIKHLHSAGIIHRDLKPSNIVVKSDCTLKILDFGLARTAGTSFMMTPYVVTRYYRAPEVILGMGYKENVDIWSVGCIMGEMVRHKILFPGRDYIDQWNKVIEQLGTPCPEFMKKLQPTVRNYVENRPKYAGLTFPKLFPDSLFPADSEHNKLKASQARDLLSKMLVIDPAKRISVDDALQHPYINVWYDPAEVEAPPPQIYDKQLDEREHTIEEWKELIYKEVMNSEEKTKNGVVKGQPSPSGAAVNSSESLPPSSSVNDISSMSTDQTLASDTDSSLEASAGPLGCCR

Columns and labels:
[1] = biological target: JNK1 (Homo sapiens, UniProt P45983); test: Activity of major compounds against JNK1/2/p38α: JNK1 (selectivity versus JNK3); conditions: ratio of IC50 JNK1/JNK3
[2] = biological target: JNK2 (Homo sapiens, UniProt P45984); test: Activity of major compounds against JNK1/2/p38α: JNK2 (selectivity versus JNK3); conditions: ratio of IC50 JNK2/JNK3
[3] = biological target: p38α (Homo sapiens, UniProt Q16539); test: Activity of major compounds against JNK1/2/p38α: p38α (selectivity versus JNK3); conditions: ratio of IC50 p38α/JNK3
[4] = biological target: JNK3 (Homo sapiens, UniProt P53779); test: In vitro JNK3 inhibitory activity assay
[5] = read-out: JNK3, Table 8, class symbols
[6] = read-out: JNK3 inhibitory activity (IC50), Table 1, imidazo[2,1-b]thiazole derivatives, class symbols
[7] = read-out: JNK3 inhibitory activity (IC50), Table 5, imidazo[2,1-b]oxazole derivatives, class symbols
[8] = read-out: JNK3 inhibitory activity (IC50), Table 3, imidazo[2,1-b]oxazole derivatives, class symbols
[9] = read-out: JNK3 inhibitory activity (IC50), Table 2, imidazo[2,1-b]thiazole derivatives, class symbols

Q: With CNC(=O)c1cn2c(-c3ccnc(N[C@@H]4CCCN(C(=O)N(C)C)C4)n3)c(-c3ccc4ccccc4c3)nc2s1 as the compound, how does the “Selectivity (IC50 fold) JNK1/JNK3” value [1] read?
A: The value was 11 fold.

Q: And the “Selectivity (IC50 fold) JNK2/JNK3” value [2]?
A: Its value is 2 fold.

Q: What about the “Selectivity (IC50 fold) p38α/JNK3” value [3] of the same compound?
A: Its value is 41 fold.

Q: And the pIC50 [4, 5]?
A: Its pIC50 is 7.52 to 9.00.

Q: What about the pIC50 [4, 6] of the same compound?
A: Its pIC50 is 7.52 to 9.00.

Q: For CNC(=O)c1cn2c(-c3ccnc(NC4CCCCC4)n3)c(-c3ccc4ccccc4c3)nc2o1, which “Selectivity (IC50 fold) JNK1/JNK3” value [1] is on record?
A: Its value is 52 fold.

Q: What about the “Selectivity (IC50 fold) JNK2/JNK3” value [2] of the same compound?
A: Its value is 12 fold.

Q: And the “Selectivity (IC50 fold) p38α/JNK3” value [3]?
A: The value was 1063 fold.

Q: And the pIC50 [4, 5]?
A: The pIC50 was greater than 9.00.

Q: And the pIC50 [4, 7]?
A: Its pIC50 is greater than 9.00.

Q: Which “Selectivity (IC50 fold) JNK1/JNK3” value [1] does the source give for CNC(=O)c1cn2c(-c3ccnc(N[C@@H]4CCCN(C(=O)N(C)C)C4)n3)c(-c3ccc(Cl)c(Cl)c3)nc2o1 here?
A: The value was 96 fold.

Q: What about the “Selectivity (IC50 fold) JNK2/JNK3” value [2] of the same compound?
A: The value was 67 fold.

Q: And the “Selectivity (IC50 fold) p38α/JNK3” value [3]?
A: The value was 964 fold.

Q: What about the pIC50 [4, 5] of the same compound?
A: The pIC50 was greater than 9.00.

Q: For CNC(=O)c1cn2c(-c3ccnc(N[C@@H]4CCCN(C(=O)C5CC5)C4)n3)c(-c3ccc4ccccc4c3)nc2s1, which “Selectivity (IC50 fold) JNK1/JNK3” value [1] is on record?
A: The value was 64 fold.

Q: And the “Selectivity (IC50 fold) JNK2/JNK3” value [2]?
A: The value was 7 fold.

Q: What about the pIC50 [4, 5] of the same compound?
A: The pIC50 was 7.52 to 9.00.

Q: CCOC(=O)c1cn2c(-c3ccnc(N[C@@H]4CCCN(C(=O)C5CC5)C4)n3)c(-c3ccc4ccccc4c3)nc2s1 was tested. Which “Selectivity (IC50 fold) JNK1/JNK3” value [1] did it give?
A: The value was 100 fold.

Q: What about the “Selectivity (IC50 fold) JNK2/JNK3” value [2] of the same compound?
A: The value was 10 fold.

Q: And the pIC50 [4, 5]?
A: Its pIC50 is 7.52 to 9.00.

Q: And the pIC50 [4, 6]?
A: Its pIC50 is 7.52 to 9.00.

Q: What does the source list for CCOC(=O)c1cn2c(-c3ccnc(N[C@@H]4CCCN(C(=O)N(C)C)C4)n3)c(-c3ccc4ccccc4c3)nc2s1?
A: Selectivity (IC50 fold) JNK1/JNK3 [1]: 29 fold; Selectivity (IC50 fold) JNK2/JNK3 [2]: 2 fold; pIC50 [4, 5]: 7.52 to 9.00; pIC50 [4, 6]: 7.52 to 9.00

Q: Which results are given for CNC(=O)c1cn2c(-c3ccnc(N[C@@H]4CCCN(C(=O)C5CC5)C4)n3)c(-c3ccc(Cl)c(Cl)c3)nc2o1?
A: Selectivity (IC50 fold) JNK1/JNK3 [1]: 389 fold; Selectivity (IC50 fold) JNK2/JNK3 [2]: 28 fold; Selectivity (IC50 fold) p38α/JNK3 [3]: 1245 fold; pIC50 [4, 5]: > 9.00; pIC50 [4, 8]: > 9.00

Q: Which results are given for NC(=O)c1cn2c(-c3ccnc(N[C@@H]4CCCN(C(=O)C5CC5)C4)n3)c(-c3ccc4ccccc4c3)nc2s1?
A: Selectivity (IC50 fold) JNK1/JNK3 [1]: 20 fold; Selectivity (IC50 fold) JNK2/JNK3 [2]: 3 fold; pIC50 [4, 5]: 7.52 to 9.00

Q: What does the source list for CCOC(=O)c1cn2c(-c3ccnc(NC4CCOCC4)n3)c(-c3ccc(Cl)c(Cl)c3)nc2s1?
A: Selectivity (IC50 fold) JNK1/JNK3 [1]: 124 fold; Selectivity (IC50 fold) JNK2/JNK3 [2]: 1 fold; Selectivity (IC50 fold) p38α/JNK3 [3]: 22 fold; pIC50 [4, 5]: > 9.00; pIC50 [4, 9]: > 9.00

Q: What does the source list for CCOC(=O)c1cn2c(-c3ccnc(N[C@@H]4CCCN(C(=O)N(C)C)C4)n3)c(-c3ccc(Cl)c(Cl)c3)nc2s1?
A: Selectivity (IC50 fold) JNK1/JNK3 [1]: 638 fold; Selectivity (IC50 fold) JNK2/JNK3 [2]: 79 fold; Selectivity (IC50 fold) p38α/JNK3 [3]: 164 fold; pIC50 [4, 5]: > 9.00; pIC50 [4, 6]: > 9.00

Q: With CN(C)C(=O)N1CCC[C@@H](Nc2nccc(-c3c(-c4ccc5ccccc5c4)nc4sc(C(N)=O)cn34)n2)C1 as the compound, how does the “Selectivity (IC50 fold) JNK1/JNK3” value [1] read?
A: Its value is 10 fold.

Q: What about the “Selectivity (IC50 fold) JNK2/JNK3” value [2] of the same compound?
A: Its value is 2 fold.

Q: What about the pIC50 [4, 5] of the same compound?
A: The pIC50 was 7.52 to 9.00.

Q: What about the pIC50 [4, 6] of the same compound?
A: Its pIC50 is 7.52 to 9.00.

Q: CCOC(=O)c1cn2c(-c3ccnc(N[C@@H]4CCCN(C(=O)N(C)C)C4)n3)c(-c3ccc(Cl)c(Cl)c3)nc2o1 was tested. Which “Selectivity (IC50 fold) JNK1/JNK3” value [1] did it give?
A: The value was 113 fold.

Q: What about the “Selectivity (IC50 fold) JNK2/JNK3” value [2] of the same compound?
A: The value was 18 fold.

Q: And the “Selectivity (IC50 fold) p38α/JNK3” value [3]?
A: The value was 246 fold.

Q: What about the pIC50 [4, 5] of the same compound?
A: Its pIC50 is greater than 9.00.

Q: What about the pIC50 [4, 8] of the same compound?
A: The pIC50 was less than 5.00.

Q: What does the source list for CNC(=O)c1cn2c(-c3ccnc(N[C@@H]4CCCN(C(=O)N(C)C)C4)n3)c(-c3ccc4c(c3)OCCO4)nc2s1?
A: Selectivity (IC50 fold) JNK1/JNK3 [1]: 109 fold; Selectivity (IC50 fold) JNK2/JNK3 [2]: 13 fold; Selectivity (IC50 fold) p38α/JNK3 [3]: 19 fold; pIC50 [4, 5]: 7.52 to 9.00; pIC50 [4, 6]: > 9.00

Q: How did the “Selectivity (IC50 fold) JNK1/JNK3” value [1] turn out when CCOC(=O)c1cn2c(-c3ccnc(NC4CCOCC4)n3)c(-c3ccc4ccccc4c3)nc2s1 was run?
A: Its value is 1741 fold.

Q: And the “Selectivity (IC50 fold) JNK2/JNK3” value [2]?
A: Its value is 77 fold.

Q: What about the “Selectivity (IC50 fold) p38α/JNK3” value [3] of the same compound?
A: The value was 916 fold.

Q: And the pIC50 [4, 5]?
A: The pIC50 was greater than 9.00.

Q: And the pIC50 [4, 9]?
A: The pIC50 was greater than 9.00.

Q: NC(=O)c1cn2c(-c3ccnc(N[C@@H]4CCCN(C(=O)C5CC5)C4)n3)c(-c3ccc(Cl)c(Cl)c3)nc2o1 was tested. Which “Selectivity (IC50 fold) JNK1/JNK3” value [1] did it give?
A: Its value is 557 fold.

Q: What about the “Selectivity (IC50 fold) JNK2/JNK3” value [2] of the same compound?
A: The value was 56 fold.

Q: What about the “Selectivity (IC50 fold) p38α/JNK3” value [3] of the same compound?
A: Its value is 1316 fold.

Q: What about the pIC50 [4, 5] of the same compound?
A: The pIC50 was greater than 9.00.

Q: And the pIC50 [4, 8]?
A: Its pIC50 is greater than 9.00.

Q: With NC(=O)c1cn2c(-c3ccnc(N[C@H]4CCN(C(=O)C5CC5)C4)n3)c(-c3ccc4ccccc4c3)nc2o1 as the compound, how does the pIC50 [4, 8] read?
A: The pIC50 was 5.00 to 6.00.

Q: CNC(=O)c1cn2c(-c3ccnc(N[C@H]4CCCN(C(=O)C5CC5)C4)n3)c(-c3ccc(Cl)c(Cl)c3)nc2o1 was tested. Which pIC50 [4, 8] did it give?
A: Its pIC50 is less than 5.00.

Q: With CN(C)C(=O)N1CCC[C@H](Nc2nccc(-c3c(-c4ccc5ccccc5c4)nc4sc(C(N)=O)cn34)n2)C1 as the compound, how does the pIC50 [4, 6] read?
A: The pIC50 was 6.00 to 7.52.

Q: CNC(=O)c1cn2c(-c3ccnc(NC4CCCCC4)n3)c(-c3ccc4c(c3)OCCO4)nc2o1 was tested. Which pIC50 [4, 7] did it give?
A: The pIC50 was 7.52 to 9.00.

Q: With NC(=O)c1cn2c(-c3ccnc(NC4CCCCC4)n3)c(-c3ccc4ccccc4c3)nc2o1 as the compound, how does the pIC50 [4, 7] read?
A: Its pIC50 is 6.00 to 7.52.

Q: How did the pIC50 [4, 8] turn out when CCOC(=O)c1cn2c(-c3ccnc(N[C@H]4CCCN(C(=O)C5CC5)C4)n3)c(-c3ccc(F)c(Cl)c3)nc2o1 was run?
A: The pIC50 was greater than 9.00.

Q: CCOC(=O)c1cn2c(-c3ccnc(N[C@@H]4CCCN(C(=O)C5CC5)C4)n3)c(-c3ccc4c(c3)OCCO4)nc2o1 was tested. Which pIC50 [4, 8] did it give?
A: The pIC50 was 6.00 to 7.52.

Q: CCOC(=O)c1cn2c(-c3ccnc(NC4CCN(C(=O)C5CC5)CC4)n3)c(-c3ccc4ccccc4c3)nc2o1 was tested. Which pIC50 ([4]; read-out: JNK3 inhibitory activity (IC50), Table 4, imidazo[2,1-b]oxazole derivatives, class symbols) did it give?
A: Its pIC50 is 7.52 to 9.00.
